Values of other authors as cited in US20120122951A1 (priority 2009, published 2012).

Tested on: Chinese hamster V79 cells
Conditions: cited from earlier work

For methyl gentisic acid, the mutagenic activity is given as “no such mutagenic property”.
